Measured values as given in paper PMC4220732, “The crimson conundrum: heme toxicity and tolerance in GAS” (Frontiers in Cellular and Infection Microbiology, 2014).

Chains of the proteins cited; added tags and fusions are not shown.
UniProt Q9A1K6, entry or part of it: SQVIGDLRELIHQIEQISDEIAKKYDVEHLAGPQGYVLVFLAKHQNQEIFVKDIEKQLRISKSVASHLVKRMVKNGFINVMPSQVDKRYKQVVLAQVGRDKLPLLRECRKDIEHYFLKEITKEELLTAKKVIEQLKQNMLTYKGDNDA

Biological target: PefR (GAS PefR) (Streptococcus pyogenes, UniProt Q9A1K6)
Test: biochemical
Parameters: gene SPy_0228

For `C=CC1=C(C)C2=Cc3c(C=C)c(C)c4[n]3[Fe]([Cl])[n]3c(c(C)c(CCC(=O)O)c3=CC3=NC(=C4)C(C)=C3CCC(=O)O)=CC1=N2` [heme], the Kd was 10 µM.
